We go through four substances from patent US20070196275A1, “Diagnostic Imaging Compositions, Their Methods Of Synthesis And Use” (priority 2001, published 2007).

In one series the test system is DiFi cells. Description: MTT assay. The format is cell-based, human. To be noted: 72 hour treatment. How it is done:
DiFi cells were seeded at 5×10^4 cells/well onto 24-well culture plates. […] An optical absorbance of cell lysate was determined by measuring the cell lysate at a wavelength of 595 nm and normalizing the value with the corresponding control of untreated cells.

On the set-up of series [1]: species or system Nude mice. To be noted: mouse, in vivo.
Another series deals with A431 tumors. The format is in vivo, mice.

“1:10 DTPA-PEG-C225: C225 with DTPA attached through PEG linker, antibody to GMBS 1:10, unlabeled”: the “DiFi cell growth (cell viability)” value with DiFi cells is “inhibited the tumor cell growth to the same extent as native C225”.

In the case of “1:20 DTPA-PEG-C225: C225 with DTPA attached through PEG linker, antibody to GMBS 1:20, unlabeled”, in the series on DiFi cells, the “DiFi cell growth (cell viability)” value was “inhibited the tumor cell growth to the same extent as native C225”.

As to “1:30 ^111In-DTPA-PEG-C225: ^111In-labeled DTPA-PEG-C225, molar ratio antibody to GMBS 1:30, about 60% of amino groups substituted”, in series [1], the “K10 (elimination rate constant from the central compartment)” value worked out at 0.09 h⁻¹, the K12 was found to be 0.53 h⁻¹, the K13 was 0.02 h⁻¹ and the K21 is 2.27 h⁻¹. The K31 in series [1] was found to be 0.04 h⁻¹. Also, in series [1] (iv), the A was found to be 11.3 % ID/ml, the B worked out at 37.3 % ID/ml and the C was 7.6 % ID/ml. In addition, the “visualization of tumors in gamma scintigrams” value with A431 tumors (A431 tumors, 48 hours after injection) is “clearly seen 48 hours after injection”. Moreover, in the series with A431 tumors (mouse, in vivo), the Liver was 25.5 ± 2.0 % IND/g, the Muscle was found to be 0.69 ± 0.22 % IND/g and the Tumor was 8.68 ± 1.78 % IND/g.

As to “1:40 DTPA-PEG-C225: C225 with DTPA attached through PEG linker, antibody to GMBS 1:40, unlabeled”, the “DiFi cell growth (cell viability)” value in the series on DiFi cells was “inhibited the tumor cell growth to the same extent as native C225”.
